# Data published in article PMC7408396, “IPEC-J2 rMdr1a, a New Cell Line with Functional Expression of Rat P-glycoprotein Encoded by Rat Mdr1a for Drug Screening Purposes” (Pharmaceutics, 2020).
# Key:
# [1] = rats, steady-state intravenous brain distribution; cited from earlier work
# rat Mdr1a P-gp = details: IPEC-J2 rMdr1a monolayers, Figure 5 comparison series
# [2] = mice; cited from earlier work
smiles,measurement,setting,value
Cc1cc2c(s1)Nc1ccccc1N=C2N1CCN(C)CC1 [olanzapine],"Kp,uu (unbound brain-to-plasma concentration ratio)",[1],2.13
same,efflux ratio,rat Mdr1a P-gp,1.9
same,"Kp,uu",[2],6.9
